Measurements from patent US11300640B2, “Protein reporters for ultrasensitive detection methods” (The Trustees of the University of Pennsylvania, priority 2017, dated 2022).
Read-outs that look alike come from different tables or passages of the source.

Conditions: 10 μM protein

## maltose binding protein [MBP]
10 mM sodium phosphate pH 8.0, no maltose
  Tm: 53.9 ± 0.7 °C
+ 1 mM maltose
  Tm: 61.0 ± 0.8 °C
